## AlphaSeq binding of Ab-14 heavy chain variants to a spike HR2 peptide

The target is the same throughout: PDVDLGDISGINAS, from the HR2 region of SARS-CoV-2 spike.

The variants keep the light chain, the linker and the frameworks of Ab-14 (scFv order VH, the linker GGGGSGGGGSGGGGS, VL).
VH: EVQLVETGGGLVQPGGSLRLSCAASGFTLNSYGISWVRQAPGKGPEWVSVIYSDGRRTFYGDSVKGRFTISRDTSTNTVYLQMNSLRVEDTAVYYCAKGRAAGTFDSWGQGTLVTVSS
VL: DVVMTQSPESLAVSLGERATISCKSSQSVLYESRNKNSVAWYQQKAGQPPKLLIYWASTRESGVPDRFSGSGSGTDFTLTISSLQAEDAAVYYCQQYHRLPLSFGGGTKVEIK

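The starting antibody came from a phage panning campaign against this peptide. These sequences belong to a second round, designed from the earlier measurements on random variants of the parent. Several design methods are mixed in this list. Affinity was read by AlphaSeq, a pooled yeast mating assay with surface-displayed partners. Pairs that bind mate more often; barcode pairs of the diploids are counted by sequencing. The ratio of observed to expected reads was calibrated, replicate by replicate, on BCL2-family standards whose Kd was known from biolayer interferometry. Mating was done six times.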

Each variant is given by its three heavy chain CDRs, as the data file delimits them; those of the parent are GFTLNSYGIS, VIYSDGRRTFYGDSVK, GRAAGTFDS. This list holds designs with at most six substitutions. Each Kd is an estimate from the mating assay, the geometric mean of the replicates in which the pair was seen; lower is stronger. "nd" marks a missing value. The strain was present, yet no cells mated with the target were sequenced in any replicate, which points to weak or no binding. The authors' rule: three or more of the six replicates give a measured affinity, fewer mean a poor binder. The range of this assay differs from that of the first round, and the authors advise against merging the two. The parent sequence was in this pool as ten entries: three were never detected, three once, and four in most replicates, with averages from 2.2 nM to 240 nM. Three control strains display no target. For all heavy chain designs, 1% of the pairings with them gave a signal, with a median of 120 nM and one signal in twenty below 7.0 nM, so weak values seen in few replicates may be background. Some sequences occur more than once in the pool; their replicates are pooled.

GFTLNSYGIS / VIYSDGRRTFYTDSVK / GREAGTFDV: 1.3 nM (6 of 6 replicates).
GFTLNSYGIS / VIYSDGRRTFYSDSVK / GKAGGTFDR: 1.8 µM (1 of 6 replicates).
GFELDSYGIS / VIYSDGRRTFYGDSVK / GRAAGTFDS: 14 nM (6 of 6 replicates).
GFTLMSYGIN / VIYCDGRRTFYGDSVK / LRAAGTALS: nd (0 of 6 replicates).
GFDLNSYGIS / VIYSDGRRTFYQDRVK / GREAGTFDS: 1.2 nM (6 of 6 replicates).
GFTLNSYGIS / VIYSDGRRTFYTDSVK / GMWAGTFDS: 8.2 nM (1 of 6 replicates).
GFLLNDYGIS / VIYSDGRRTFYIDSVK / GRAAGTFDS: 3.7 nM (6 of 6 replicates).
GFKLNEYGIS / VIYSDGRRTFYADSVK / GRTAGTFDS: 350 pM (6 of 6 replicates).
GFFLTSYGIS / VIYSDGRRTYYGDSVK / GRAAWTFDS: nd (0 of 6 replicates).
GFDLNSYGIS / VIYSDGRRTFYIDSVK / GRQAGTFDS: 2.9 nM (6 of 6 replicates).
GFSLNSYGIS / VIYADGRRTFYGDSVK / GQAAGTFDQ: 840 pM (6 of 6 replicates).
GFTLNSYGIS / VIYSDGRRTQYGDSVK / GRAAGTFDS: 400 nM (3 of 30 replicates).
GFKLNSYGIS / VIYSDGRRTFYGDSVK / GREAGTFDT: 8.6 nM (6 of 6 replicates).
KFTLNSYGDS / VIYSDGRRTFYDDTVK / GQLAGTFDS: nd (0 of 6 replicates).
GFNLNSYGIS / VIYSDGRRTFYGDSVK / GEAAGTFDN: 91 nM (6 of 6 replicates).
GFGLNEYGIS / VIYSDGRRTFYGDSVK / GQTAGTFDS: 1.3 nM (6 of 6 replicates).
GFTLNSYGIS / VIYSDGRRTFYGDSVK / GYAADTFDS: 7.1 nM (6 of 6 replicates).
GFSLNSYGIS / VIYSDGRRTFYVDSVK / GREAGTFDT: 3.0 nM (6 of 6 replicates).
GFNLNSYGIS / VIYSDGRRTFYGDKVK / GRTAGTFDS: 7.0 nM (11 of 12 replicates).
GFHLNSYGIS / VIYSDGRRTFYGDSVK / GQEAGTFDD: 16 nM (5 of 6 replicates).
GFTLDSYGIS / VIYSDGRRTFYGDSVK / GQAAGTFDQ: 23 nM (5 of 6 replicates).
GFKLNEYGIS / VIYSDGRRTIYIDSVK / GRAAGTFDS: 87 nM (5 of 6 replicates).
GFTLNEYGIS / VIYSDGRRTFYGDSVK / GKTAGTFIS: nd (0 of 6 replicates).
GFDLNSYGIS / VIYSDGRRTFYTDRVK / GQTAGTFDS: 9.2 nM (5 of 6 replicates).
GFELNSYGIS / VIYSDGRRTFYGDSVK / GHAAGTFDT: 8.8 nM (6 of 6 replicates).
GFTLNSYGIS / VIYSDGRRTFYDDSVK / GTVAGTFDS: 13 nM (6 of 6 replicates).
GITLNSYGIS / VIYSDGRRTFYGDSVE / GRAAGTFDS: 550 nM (1 of 6 replicates).
GFTLNSYGIS / VIYSDGRRTFYGDSVK / GKEAGTFDA: 650 pM (6 of 6 replicates).
GFTLNSYGIS / VDYSDGLRTFYGDSVK / GRAAGTFDS: nd (0 of 6 replicates).
GFTLNSYGIS / VIYSDGKRTFYGDSVK / GQDAATFDS: nd (0 of 6 replicates).
GFSLNSYGIS / VIYSDGRRTFYGDDVK / GRNAGTFDT: 710 pM (6 of 6 replicates).
GFSLNDYGIS / VIYSDGRRTFYDDSVK / GRAAGTFDS: 640 pM (6 of 6 replicates).
GFDLNSYGIS / VIYSDGRRTFYCDRVK / GQAAGTFDS: nd (0 of 6 replicates).
GFTLNEYGIS / VIYADGRRTFYGDSVK / GRAAATFDS: 46 nM (2 of 6 replicates).
GFTLNEYGIS / VIYSDGRRTFYTDDVK / GEAAGTFDS: 880 pM (6 of 6 replicates).
GFWLNDYGIS / VIYSDGRRTFYADSVK / GRAAGTFDL: 8.3 nM (6 of 6 replicates).
GFALNSYGIS / VIYSDGRRTFYGDSVK / GRWAGTFDS: 88 nM (2 of 6 replicates).
GFSLNMYGIS / VIYSDGRRTFYGDSVK / GKTAGTFDS: 7.8 nM (6 of 6 replicates).
GFSLNSYGIS / VIYSDGRRTFYGDSVK / GQTAGTFDD: 5.0 nM (6 of 6 replicates).
KFNLNSYGIS / VIYSDGRRVFYGDSVK / GRAAGTFDS: nd (0 of 6 replicates).
GFSLNSYGIS / VIYSDGRRTFYADSVK / GRNAGTFDT: 900 pM (6 of 6 replicates).
GFTLNSYGIH / VIYSDGRRTFYGDSVK / NQAAGTFDS: nd (0 of 6 replicates).
GFTLNSYGIS / VIYADGRRTFYGDQVK / GRAAGTFKS: nd (0 of 6 replicates).
GVTLNSYGIS / VIYADGRRTFYGDSVK / GRAAGTFDS: 23 nM (6 of 6 replicates).
GFTLNDYGIS / VIYSDGRRTMYMDSVK / GRAAGTFDS: 23 nM (4 of 6 replicates).
GFTLNSYGIS / VIYSDPRRTFYSDSVK / GEAGCHFDS: nd (0 of 6 replicates).
GFKLNSYGIS / VIYSDGRRTFYVDSVK / GQTAGTFDS: nd (0 of 6 replicates).
GFTLYIYGIS / VIRSDFRRTFYGDSVK / GRAAVTFDQ: nd (0 of 6 replicates).
GFSLNNYGIS / VIYSDGRRTFYVDSVK / GQTAGTFDS: nd (0 of 6 replicates).
GFTLNSYGIS / VIYADGRRTFYGDQVK / GRTAGTFKS: 1.4 µM (3 of 6 replicates).
GFTLNDYGIS / VIYSDGRRTQYIDSVK / GRAAGTFWS: nd (0 of 6 replicates).
GFTLNEYGIS / VIYSDGMRTFYSDSVK / GRAAGRFDS: nd (0 of 6 replicates).

Excerpt, the first 5 entries:

{"CDR-H1": "GFTLNSYGIS", "CDR-H2": "VIYSDGRRTFYTDSVK", "CDR-H3": "GREAGTFDV", "Kd (apparent)": "1.3 nM", "detected": "6 of 6"}
{"CDR-H1": "GFTLNSYGIS", "CDR-H2": "VIYSDGRRTFYSDSVK", "CDR-H3": "GKAGGTFDR", "Kd (apparent)": "1.8 µM", "detected": "1 of 6"}
{"CDR-H1": "GFELDSYGIS", "CDR-H2": "VIYSDGRRTFYGDSVK", "CDR-H3": "GRAAGTFDS", "Kd (apparent)": "14 nM", "detected": "6 of 6"}
{"CDR-H1": "GFTLMSYGIN", "CDR-H2": "VIYCDGRRTFYGDSVK", "CDR-H3": "LRAAGTALS", "Kd (apparent)": "nd", "detected": "0 of 6"}
{"CDR-H1": "GFDLNSYGIS", "CDR-H2": "VIYSDGRRTFYQDRVK", "CDR-H3": "GREAGTFDS", "Kd (apparent)": "1.2 nM", "detected": "6 of 6"}

From the AlphaSeq antibody data of Li et al. 2023 (doi:10.1038/s41467-023-39022-2), copy in the FLAb collection.